{"source": "patent US20140242599A1", "about": "“MATERIALS AND METHODS FOR DETERMINING SENSITIVITY POTENTIAL OF COMPOUNDS” (ELECTROPHORETICS LIMITED, priority 2011, published 2014)", "origin": "cited, not measured here", "conditions": "words printed in the LLNA EC3 column; cited from earlier work", "data": [{"smiles": "O=[N+]([O-])c1ccc(S(=O)(=O)O)c([N+](=O)[O-])c1", "values": [{"measurement": "LLNA outcome / sensitizer potency class", "result": "(strong)"}]}]}
